Test results as given in patent US8927244B2, “Organophosphorus hydrolase” (dated 2015).
Values joined by “and” are separate entries in the source; they are usually repeats but may differ in a detail not shown here. Equal entries are not always repeated.

Columns and labels:
[1] = Whole cell paraoxon hydrolysis after ethanol pretreatment
[2] = system: S. cerevisiae; experiment: Growth and viability of S. cerevisiae harboring pOPD-ESC-URA in ethanol
[3] = Whole cell paraoxon hydrolysis, control vs digitonin-permeabilized cells; conditions: yeast cells treated with digitonin
[4] = system: S. cerevisiae BY4741; experiment: Promoter-YDsRed biosensor assay; conditions: for YDsRed Fold-induction: 3 mM paraoxon 4.5 h
[5] = system: S. cerevisiae; experiment: Effect of paraoxon on S. cerevisiae growth
[6] = system: S. cerevisiae W3031A; experiment: Microarray analysis of yeast gene expression; conditions: 3 mM paraoxon 60 min
[7] = system: S. cerevisiae BY4741; experiment: Paraoxon-inducible promoter-YeGFP biosensor assay
[8] = system: S. cerevisiae W3031A; experiment: Relative and real-time RT-PCR of paraoxon-responsive genes
[9] = system: S. cerevisiae BY4741, erg3, erg4, erg6; experiment: Sensitivity of yeast membrane mutants to paraoxon (growth curves); conditions: for Growth rate vs wild-type: 0.5 mM paraoxon; for Growth rate: 0.125 mM paraoxon
[10] = recombinant OPH+ yeast, associated with paraoxon hydrolysis
[11] = real-time RT-PCR, W3031A pESC-URA (empty plasmid), 3 mM paraoxon
[12] = real-time RT-PCR, W3031A pOPD-ESC-URA (expressing opd), 3 mM paraoxon

SMILES: CCO
- Fold-increase compared to control cultures ([1]; 2% ethanol pretreatment): 1.29 fold
- Whole cell activity ([1]; 2% ethanol pretreatment 4.5 h): 0.36 μmoles paraoxon hydrolyzed/min/10^9 cells
- Fold-increase compared to control cultures ([1]; 4% ethanol pretreatment): 1.46 fold
- Whole cell activity ([1]; 4% ethanol pretreatment 4.5 h): 0.41 μmoles paraoxon hydrolyzed/min/10^9 cells
- S. cerevisiae growth (OD600) ([2]; 2 or 4% ethanol): decrease in S. cerevisiae growth rate
- Viability (trypan blue) vs control ([2]; 4% ethanol, 3.75 h treatment): no difference in the viability
- S. cerevisiae growth (OD600) ([2]; 6-8% ethanol): severely inhibited growth

SMILES: C[C@@H]1CC[C@@]2(OC1)O[C@H]1[C@@H](O)[C@H]3[C@@H]4CC[C@H]5C[C@@H](O[C@@H]6O[C@H](CO)[C@H](O[C@@H]7O[C@H](CO)C(O)[C@H](O[C@@H]8OC[C@@H](O)[C@H](O)[C@H]8O)[C@H]7O[C@@H]7O[C@H](CO)[C@H](O)[C@H](O[C@@H]8O[C@H](CO)[C@@H](O)[C@H](O)[C@H]8O)[C@H]7O)[C@H](O)[C@H]6O)[C@H](O)C[C@]5(C)[C@H]4CC[C@]3(C)[C@H]1[C@@H]2C (stereo partly drawn)
- Increase of paraoxon hydrolysis compared to control cells [3]: 3 to 4 fold

SMILES: CCOP(=O)(OCC)Oc1ccc([N+](=O)[O-])cc1
- YDsRed Fold-induction ([4]; control yeast (pESC-URA), pPOX1-F1): 0.84 fold
- YDsRed Fold-induction ([4]; control yeast (pESC-URA), pPOX1-F2): 0.74 fold
- YDsRed Fold-induction ([4]; control yeast (pESC-URA), pYGR287C-F1): 1.41 fold
- YDsRed Fold-induction ([4]; control yeast (pESC-URA), pYGR287C-F2): 1.13 fold
- YDsRed Fold-induction ([4]; recombinant OPH+ yeast (pYOPD-URA), pPOX1-F1): 3.0 fold
- YDsRed Fold-induction ([4]; recombinant OPH+ yeast (pYOPD-URA), pPOX1-F2): 8.3 fold
- YDsRed Fold-induction ([4]; recombinant OPH+ yeast (pYOPD-URA), pYGR287C-F1): 2.1 fold
- YDsRed Fold-induction ([4]; recombinant OPH+ yeast (pYOPD-URA), pYGR287C-F2): 2.4 fold
- YDsRed fluorescence induction ([4]; time course, recombinant OPH+ harboring pPDX1-F2-YDsRed, 260 min exposure to paraoxon): 2.5 fold
- S. cerevisiae growth (OD600) ([5]; 0.5 mM paraoxon): did not significantly inhibit the growth
- Growth of wild-type and OPH+ cells ([5]; 1 mM paraoxon, S. cerevisiae W3031A): inhibited to a similar extent
- S. cerevisiae growth (OD600) ([5]; 4.0 mM paraoxon): prolonged lag phase
- S. cerevisiae growth (OD600) ([5]; paraoxon at concentrations higher than 0.5 mM): growth retardation
- Fold-induction, YGR213C (RTA1) [6]: 152.2 fold
- Fold-induction, YHR139C (SPS100) [6]: 719.1 fold
- Fold-induction, YIR017C (MET28) [6]: 27.7 fold
- Fold-induction, YLL056C [6]: 18.5 fold
- Fold-induction, YLR346C [6]: 69.6 fold
- Fold-induction, YOR186W [6]: 269.1 fold
- Fold-induction, YGL205W (POX1/FOX1) [6, 10]: 6.96 fold
- Fold-induction, YGR287C [6, 10]: 3.86 fold
- Fold-induction, YHL012W [6, 10]: 3.84 fold
- Fold-induction, YJL219W (HXT9) [6, 10]: 3.94 fold
- YeGFP fluorescence increase ([7]; pYLR346C-F1-YeGFP, 0.1 mM paraoxon 2 h): 1.3 fold
- YeGFP fold-induction ([7]; yeast harboring pYGR035C-YeGFP, 3 mM paraoxon 2 h): 3 fold
- YeGFP fold-induction ([7]; yeast harboring pYLR346, 15 min exposure to paraoxon): 2 fold
- YeGFP fold-induction ([7]; yeast harboring pYLR346C-YeGFP, 3 mM paraoxon 2 h): 5 fold
- YGR035C induction ([8]; 0.5 mM paraoxon 60 min): 18 fold
- YLR346C induction ([8]; 0.5 mM paraoxon 60 min): 8 fold
- YGR035C induction ([8]; 1.0 mM paraoxon 60 min): 31 fold
- YLR346C induction ([8]; 1.0 mM paraoxon 60 min): 10 fold
- YGR035C induction ([8]; 2.5 mM paraoxon 7.5 min): 98 fold
- YLR346C induction ([8]; 2.5 mM paraoxon 7.5 min): 32 fold
- Fold-induction, HXT9, CP [8, 11]: 2.8 fold
- Fold-induction, POX1, CP [8, 11]: 0.9 fold
- Fold-induction, YGR287C, CP [8, 11]: 2 fold and 1.9 fold
- Fold-induction, YHL012W, CP [8, 11]: 0.8 fold
- Fold-induction, HXT9, TP [8, 12]: 2.7 fold
- Fold-induction, POX1, TP [8, 12]: 2.4 fold
- Fold-induction, YGR287C, TP [8, 12]: 9 fold and 9.1 fold
- Fold-induction, YHL012W, TP [8, 12]: 1.0 fold
- Gene expression of YOR186W, SPS100 and RTA1 ([8]; relative RT-PCR, 0.05-1.0 mM paraoxon 60 min): no obvious changes in gene expression
- Growth rate vs wild-type ([9]; erg3 or erg4 strains): no difference in the growth rates
- Growth rate ([9]; erg6): inhibited
- Growth rate vs wild-type ([9]; erg6): significant decrease in the growth rate
- Growth rate ([9]; wild-type strain BY4741): no effect
